Assay results: patent US5006342A, “Resilient transdermal drug delivery device” (Cygnus Corporation, priority 1989, dated 1991)
This is a selection: effects in other tests are not listed, and their absence says nothing.

Assays:
[1] = in vitro dissolution of fentanyl base at 25° C.; conditions: 48 hours
[2] = fentanyl skin flux through cadaver skin (diffusion cells, 32° C., phosphate buffer pH 6.0 receiver)

Question: With `CCC(=O)N(c1ccccc1)C1CCN(CCc2ccccc2)CC1` as the compound, how does the “correlation coefficient of square root time dependence of release” value ([1]; Example 16, 25° C.) read?
Answer: The value was 0.99.

Question: And the “time dependence of cumulative fentanyl base released” value ([1]; Example 16, 25° C.)?
Answer: The value was “square root time dependent”.

Question: And the “correlation coefficient of square root time dependence of release” value ([1]; Example 22, 25° C.)?
Answer: The value was 0.99.

Question: What about the “time dependence of cumulative fentanyl base released” value ([1]; Example 22, 25° C.) of the same compound?
Answer: Its value is “square root time dependent”.

Question: And the “fentanyl base steady state flux, cadaver skin” value ([2]; Example 16, PIB reservoir/PDMS adhesive with Medifilm 428 or 827, 32° C., pH 6.0 receiver)?
Answer: The value was 9.7 μg/cm^2 /hr.

Question: What about the Steady-state skin flux ([2]; Example 17, as Example 16 without Medifilm structure layer) of the same compound?
Answer: Its Steady-state skin flux is 17.5 μg/cm^2 /hr.

Question: And the “increase of fentanyl skin flux by removal of the Medifilm layer” value ([2]; Example 17 vs Example 16)?
Answer: Its value is “increased two-fold”.

Question: And the “total fentanyl base delivered” value ([2]; Example 22, 24 hr skin permeation study)?
Answer: Its value is 85%.

Question: And the “fentanyl delivered from the composite” value ([2]; Example 23, after 24 hr)?
Answer: The value was “approximately 85%”.

Question: And the “Fentanyl skin flux from the nonocclusive system (steady-state)” value ([2]; Examples 20 and 21, acrylate reservoir, nonocclusive Medifilm 827 backing)?
Answer: Its value is 0.37 μg/cm^2 /hr.

Question: What about the “Fentanyl skin flux from the occlusive system” value ([2]; Examples 20 and 21, acrylate reservoir, occlusive polyester backing) of the same compound?
Answer: Its value is 2.96 μg/cm^2 /hr.

Question: What about the “time up to which steady-state flux was maintained” value ([2]; Examples 20 and 21, nonocclusive system, flux 0.37 μg/cm^2 /hr) of the same compound?
Answer: The value was 72 h.
